Experiment [1] has as its target T1, MAO-B (Rattus norvegicus, UniProt P19643). Particulars: in rats; Borbe; cited from earlier work.
Experiment [2] addresses T1, MAO-B. The experiment in a line: biochemical. Particulars: read-out: Percent Inhibition MAO-B.
Experiment [3] addresses T1, MAO-B. The experiment in a line: biochemical.
A further experiment has as its target dopamine uptake system (Rattus norvegicus, UniProt P23977). The experiment can be described thus: Inhibition of tritiated dopamine uptake in rat neostriatal nerve-terminal (synaptosome) preparation. Particulars: IC50, concentration needed to inhibit dopamine uptake by 50%.
In experiment [4] the target is T2, MAO-B (Cavia porcellus, UniProt P58028). The experiment can be described thus: In vivo brain MAO-B inhibition in guinea pig hippocampus after 5 daily s.c. doses. Particulars: 5 days of administration; more recent studies.
Experiment [5] addresses T2, MAO-B. The experiment in a line: MAO-B inhibition in guinea pig hippocampal homogenates in vitro.

The chains behind the UniProt entries cited, without tags or fusion partners.
UniProt P19643, whole entry: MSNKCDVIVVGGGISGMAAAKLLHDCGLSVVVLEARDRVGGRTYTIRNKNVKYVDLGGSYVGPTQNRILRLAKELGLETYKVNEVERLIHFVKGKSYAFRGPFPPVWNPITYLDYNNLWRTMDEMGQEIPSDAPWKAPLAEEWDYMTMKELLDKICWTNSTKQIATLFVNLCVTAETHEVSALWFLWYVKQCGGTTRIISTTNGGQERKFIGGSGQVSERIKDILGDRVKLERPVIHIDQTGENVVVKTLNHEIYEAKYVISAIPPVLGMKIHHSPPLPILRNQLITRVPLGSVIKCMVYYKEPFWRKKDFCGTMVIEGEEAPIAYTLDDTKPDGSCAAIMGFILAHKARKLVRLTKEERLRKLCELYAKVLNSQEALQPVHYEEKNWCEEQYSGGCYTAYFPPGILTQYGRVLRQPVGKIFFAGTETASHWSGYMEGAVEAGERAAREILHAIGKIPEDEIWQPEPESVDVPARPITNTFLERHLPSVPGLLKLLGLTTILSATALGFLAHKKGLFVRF
UniProt P23977, whole entry: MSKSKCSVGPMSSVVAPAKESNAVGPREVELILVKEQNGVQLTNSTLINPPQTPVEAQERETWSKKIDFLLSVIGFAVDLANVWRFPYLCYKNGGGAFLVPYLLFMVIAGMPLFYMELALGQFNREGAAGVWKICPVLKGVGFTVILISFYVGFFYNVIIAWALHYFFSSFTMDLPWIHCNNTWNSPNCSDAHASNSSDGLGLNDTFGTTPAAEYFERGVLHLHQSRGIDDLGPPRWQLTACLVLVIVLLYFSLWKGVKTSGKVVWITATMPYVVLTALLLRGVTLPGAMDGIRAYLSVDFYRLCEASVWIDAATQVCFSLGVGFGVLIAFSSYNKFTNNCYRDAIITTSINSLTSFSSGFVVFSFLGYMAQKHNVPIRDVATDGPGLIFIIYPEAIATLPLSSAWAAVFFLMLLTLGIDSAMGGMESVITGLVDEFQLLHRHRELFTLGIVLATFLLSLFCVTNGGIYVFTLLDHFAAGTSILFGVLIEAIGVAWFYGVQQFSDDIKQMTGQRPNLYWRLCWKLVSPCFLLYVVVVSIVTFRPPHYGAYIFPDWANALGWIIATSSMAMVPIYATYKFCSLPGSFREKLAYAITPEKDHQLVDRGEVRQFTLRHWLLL
UniProt P58028, whole entry: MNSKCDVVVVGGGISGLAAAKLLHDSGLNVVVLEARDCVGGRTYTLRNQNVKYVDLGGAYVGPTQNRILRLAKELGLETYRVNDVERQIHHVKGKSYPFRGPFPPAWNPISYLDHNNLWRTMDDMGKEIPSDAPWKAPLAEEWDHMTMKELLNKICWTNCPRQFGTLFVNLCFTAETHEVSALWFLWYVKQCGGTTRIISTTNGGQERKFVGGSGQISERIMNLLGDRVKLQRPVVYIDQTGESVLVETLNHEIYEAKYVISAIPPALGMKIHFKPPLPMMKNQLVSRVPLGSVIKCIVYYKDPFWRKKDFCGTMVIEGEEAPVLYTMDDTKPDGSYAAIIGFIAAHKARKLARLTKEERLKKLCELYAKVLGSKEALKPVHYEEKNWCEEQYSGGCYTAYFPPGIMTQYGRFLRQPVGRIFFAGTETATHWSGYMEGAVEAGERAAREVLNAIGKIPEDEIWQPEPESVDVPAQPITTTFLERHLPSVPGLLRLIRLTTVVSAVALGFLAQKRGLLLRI

“And” between values parts separate entries of the source, which are not always exact repeats. Equal entries are not always repeated.

Usually IC50 stands for the midpoint of a concentration-inhibition curve. Low readings indicate higher potency, high ones lower potency. Turning to `C#CCNC(C)Cc1ccccc1` (single isomer, unassigned) [R(−)DMS, R(−)-desmethylselegiline], the “kind of MAO-B inhibition” value on MAO-B [1] is “irreversible inhibitor of MAO-B”. On MAO-B [2], the inhibition at 0.003 µM was found to be 3.4%, the inhibition at 0.01 µM worked out at 7.5%, the inhibition at 0.03 µM turned out to be 4.6% and the inhibition at 0.1 µM is 6.7%. Further, on MAO-B [2], the inhibition at 0.3 µM turned out to be 26.1%, the inhibition at 1 µM amounted to 54.7%, the inhibition at 3 µM came to 86.3% and the inhibition at 10 µM is 95.2%. The inhibition at 30 µM on MAO-B [2] turned out to be 97%. This molecule also yielded an IC50 against MAO-B [3] of 0.73 µM. In addition, the IC50 at dopamine uptake system was ~54 µM and 54 µM.

As for `C#CCN(C)[C@H](C)Cc1ccccc1` [Selegiline, (R)-N-α-dimethyl-N-2-propynylbenzeethanamine, reference compound], the “reduction in potency compared to selegiline, brain MAO-B in vivo” value on MAO-B [4] amounted to 1. Also, at MAO-B [5] (IC50 Values for the Inhibition of MAO-B, Guinea Pig Hippocampal Cortex), the IC50 came to 0.001 µM. Moreover, the “reduction in potency compared to selegiline, MAO-B, Guinea Pig Hippocampal Cortex” value at MAO-B [5] (figure in parentheses) is given as 1 nM (1). For the same molecule, the inhibition at 0.005 µM at MAO-B [5] (read-out: MAO-B % Inhibition 0 ± SEM, Concentration 5 nM) is 81.2 ± 2.6%. The inhibition at 0.01 µM at MAO-B [5] (read-out: MAO-B % Inhibition 0 ± SEM, Concentration 10 nM) stood at 95.6 ± 1.3%. Also, the inhibition at 0.03 µM at MAO-B [5] (read-out: MAO-B % Inhibition 0 ± SEM, Concentration 30 nM) is 98.5 ± 0.5%. Further, at MAO-B [5] (read-out: MAO-B % Inhibition 0 ± SEM, Concentration 100 nM), the inhibition at 0.1 µM worked out at 98.8 ± 0.5%. Moreover, the inhibition at 0.3 µM at MAO-B [5] (read-out: MAO-B % Inhibition 0 ± SEM, Concentration 0.3 μM) was 28.3 ± 8.7%.

The values are drawn from patent publication US20060167110A1 (published 2006).
